## scFv variants of Ab-14 (light chain) against a SARS-CoV-2 spike peptide

Antigen: PDVDLGDISGINAS, a 14-residue peptide of the SARS-CoV-2 spike HR2 region.

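The starting antibody came from a phage panning campaign against this peptide. These sequences belong to a second round, designed from the earlier measurements on random variants of the parent. Group labels follow the data file (Ctrl: baseline library sampled from a position-specific scoring matrix, with some repeated check sequences; En: ensemble of fine-tuned language models; GP: Gaussian process model; HC: hill climbing; Gen: genetic algorithm; Gibbs: Gibbs sampling; a sequence that several methods proposed may carry one label only). In AlphaSeq, yeast of one mating type display the scFv and yeast of the other type display the target. Mating (16 h, 30 °C) was followed by selection of diploids and sequencing of their barcodes. Each replicate has its own calibration line, from reference interactions of the BCL2 family. Each pool was mated in six replicate cultures.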

Each scFv is VH, the linker GGGGSGGGGSGGGGS, VL, as in the parent Ab-14, and differs from it in the CDRs of the light chain only.
VH: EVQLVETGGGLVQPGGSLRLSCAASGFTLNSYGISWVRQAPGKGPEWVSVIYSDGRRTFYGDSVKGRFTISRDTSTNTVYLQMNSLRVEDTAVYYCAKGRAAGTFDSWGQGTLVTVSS
VL: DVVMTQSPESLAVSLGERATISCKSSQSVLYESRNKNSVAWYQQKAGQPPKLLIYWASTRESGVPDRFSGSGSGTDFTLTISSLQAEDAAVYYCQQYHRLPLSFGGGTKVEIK

Each variant is given by its three light chain CDRs, as the data file delimits them; those of the parent are KSSQSVLYESRNKNSVA, WASTRES, QQYHRLPLS.
Variants here have more than six changes.
The read-out is the apparent dissociation constant on a log10 scale (nM): the lower, the stronger.
Where no diploid with the target was found in that replicate, the entry reads "nd": below detection, most likely a poor binder, though not proof of it.
Background: pairings of all light chain designs with three empty control strains gave a value in 4% of cases (median 2.64, 5th percentile 1.59). Values in that range, when seen in few replicates, are hard to tell from nonspecific mating.
Values of this round are not directly comparable with the first-round values of the same sequences.
In the paper, a design with two or fewer of six values counts as a poor binder.

For KITSHEWHGTADNSAMA | NADVSHD | QQYSRLPLF [En_Gibbs], the assay gave 0.55, 0.60, 0.41, 0.75, 0.54, 0.60. Variant KLPQSDLYEGRNSNSVA | NASTRFS | QQYHRLPLS [GP_Gibbs] gave 0.06, -0.09, -0.25, -0.14, -0.20, -0.05. With KVSSFMRGLMMRKDSIA | DNETRNN | QQYDRLPLS [En_Gen] the result was 0.54, 0.21, 0.67, 0.75, 0.41, 0.75. Variant TLVDWIQGGMWAKKNVA | DESTRVN | QQYYRLPLS [En_Gibbs] gave 0.80, 0.21, 0.15, 0.37, 0.90, 0.29. Variant TLMQVGGYETNAHNSIA | DLRTRES | QQYHRLPLS [En_HC] gave 0.68, 0.94, 1.03, 0.31, 0.82, 1.09. Variant RFSQTEEMGIRDYNAVA | NGSTVNT | QHYSRLPIS [En_Gibbs] gave 1.03, 1.06, 1.05, 0.71, 1.23, 0.85. Variant HFSVETMEFMGPNKNIA | EVSTTML | QQYARLPFM [En_Gibbs] showed 1.21, 1.18, 1.19, 1.63, 1.18, 1.75. Variant QLGMATMLQETVRNSVA | NNSTRES | QQYDRLPLS [En_Gen] showed 2.40, 1.55, 1.71, 2.07, 1.94, 3.06.

Variant TISQHAQMESHNKNSVA | DLNVRGS | QQYDRLPLS [En_HC] showed 0.20, 0.57, 0.27, 0.03, 0.33, 0.10. With KMSMSVLYEDRNQNSVA | NASQRLD | QQYHRLPLS [GP_Gibbs] the result was 0.12, 0.07, -0.19, -0.08, -0.12, 0.11. For KLSIIGLHESIDKKSIA | ERSTREN | QQYHRLPLS [En_HC], the assay gave 0.10, 0.68, 1.37, 0.77, 0.69, 1.09. Variant MLWQQMYGFNLHKDAIA | NGKERTG | QQYGRLPLS [En_Gibbs] gave 1.98, 0.73, 0.50, 1.35, 0.69, 0.93. For MISDLTMYGSRKKNSVA | DSSTRGS | QQYHRLPLS [En_HC], the assay gave -0.12, -0.26, -0.37, -0.49, -0.35, -0.25. With NMRLNEGEIAMHGYAIA | GVDLRAA | QQYARLPLH [En_Gibbs] the result was 0.77, 0.79, 0.89, 0.62, 0.74, 0.95. For KLASVTGTEKVRGNNVA | EMETREQ | QQYNRLPLS [En_Gen], the assay gave 0.80, 0.48, 0.35, 0.67, 0.25, 0.85. Variant HLQEQSVMDEKNQNSMA | QTEQKYS | QQYARLPFM [En_Gibbs] gave 0.86, 1.67, 0.85, 1.13, 0.98, 0.98.

For FSSQSWLMEQRNDNSVA | SASTRED | QQYHRLPLS [GP_Gibbs], the assay gave 1.43, 0.97, 0.87, 0.39, 0.81, 1.41. For VLQQSVCYESRNKNSVA | NASKREE | QQYHRLPLS [GP_Gibbs], the assay gave 0.51, -0.05, 0.18, -0.21, 0.22, 0.17. Variant KISMLINTTFEESNNVA | EMVTREK | QQYNRLPLS [En_Gen] showed 2.16, 1.69, nd, 1.07, 1.47, nd. Variant MLSQMWGIGMKAKNSVA | QASIRFN | QQYDRLPLI [En_Gen] gave 2.47, 2.09, 1.64, 1.77, 1.65, 2.45. Variant KLSQQGLYGSRNANSVA | NADTREQ | QQYHRLPLS [GP_Gibbs] showed -0.07, -0.16, -0.46, -0.39, -0.61, -0.08. For HITYGMMLAGRHSSSIA | QAEERAK | QQYDRLPLS [En_Gen], the assay gave 1.22, 0.95, 1.12, 0.94, 1.19, 1.66. For KLSQSVEYESRDKNAVA | DAQTRMS | QQYHRLPLS [GP_Gibbs], the assay gave -0.09, -0.29, -0.34, -0.41, -0.29, -0.07. With KIGAVTNGISRSKNSVA | EQSTRED | QQYNRLPLS [En_HC] the result was 0.53, 1.69, 1.01, 1.30, 1.55, 1.15.

Variant HLSDLLSYGKDLQNAVA | GVQTRMT | QQYARLPLF [En_Gibbs] gave 0.16, 0.25, 0.11, 0.30, 0.09, 0.37. For QIYQAMHTLMQAKNNIA | DVTNRQN | QQYHRLPLS [En_Gen], the assay gave 0.93, 0.48, 0.66, 0.58, 0.69, 0.66. Variant KLSMEHDYESRNKNSVA | QASTREW | QQYHRLPLS [GP_Gibbs] showed -0.02, 0.10, -0.24, -0.33, -0.31, -0.42. Variant MFSQSVMYGSFYRNSVA | QTSTREA | QQYDRLPLS [En_HC] gave 0.66, 0.75, 0.39, 0.66, 0.48, 0.98. With AVSIQHMENTAIWNAIA | DTSLRAH | QQYYHLPLS [En_Gibbs] the result was 1.83, 1.36, 1.32, 1.54, 1.36, 1.35. For IVSQLMMWGMVAKNSIA | EAVTRLN | QQYDRLPLF [En_Gen], the assay gave nd, nd, nd, nd, nd, nd. Variant MLSQMWGLGMKASNSVA | QASMRFN | QQYHRLPLI [En_Gen] showed 0.96, 0.88, 1.55, 0.68, 1.37, 0.99. Variant SIGLATPLEEKVRNSVA | NNSTRED | QQYDRLPLS [En_Gen] gave nd, nd, 3.43, 1.54, 1.63, 2.77.

Variant KMEWSDLLESRNVQSVA | QASTRES | QQYHRLPLS [GP_Gibbs] showed 0.48, 0.52, 0.34, 0.51, 0.57, 0.40. Variant KLQMQMLYESRMMNSVA | DASQRES | QQYHRLPLS [GP_Gibbs] showed -0.07, -0.01, -0.45, -0.56, -0.46, -0.14. Variant RSSQSCWFESYNKNSVA | WAKTRES | YQYPRLPLS [Ctrl] showed nd, nd, nd, nd, nd, nd. For TLSDVTRMESNKKSSIA | DMSNRAD | QQYHRLPIS [En_HC], the assay gave 0.55, 0.48, 0.08, 0.17, 0.62, 0.47. Variant MITAAMNAYGGNRSNIA | DKEISVN | QQYHHLPLS [En_Gibbs] gave 1.54, 1.85, 1.40, 1.33, 1.49, 1.93. Variant TISQMTSLFSQTINNVA | EVSTREQ | QQYDRLPLQ [En_Gen] showed 0.44, 0.47, 0.03, 0.83, 0.79, 0.87. With SLHHYKLGENGMRGSVA | NATIRDQ | QQYFRLPLF [En_Gibbs] the result was 0.47, 0.65, 0.38, 0.22, 0.37, 0.36. For KLYDEAFNRVGTATNIA | EKEISLQ | QQYDRLPLS [En_Gibbs], the assay gave 1.80, 0.82, 0.84, 2.06, 0.94, 1.92.

With KQQQSEPGLSRNMNSVA | HASQRES | QQYHRLPLS [GP_Gibbs] the result was 0.63, 0.37, 0.35, 0.75, 1.13, 1.15. Variant KLRQVTGYENYLRNSVA | QMSTRAE | QDYHRLPLS [En_HC] showed 0.84, 0.22, 0.51, 0.24, 0.39, 0.70. Variant KFSQMVNSMSVSKSAVA | EMSTRPE | QQYNRLPLS [En_Gen] gave 0.66, 0.58, 0.51, 0.18, 0.61, 0.57. For KVQQSELGLSRNKNSVA | NASKRES | QQYHRLPLS [GP_Gibbs], the assay gave 0.28, 0.12, 0.05, 0.21, 0.36, 0.32.

From the list, the first 2 with no signal in any replicate:

CDR-L1	CDR-L2	CDR-L3	group	log10 Kd (nM) by replicate
IVSQLMMWGMVAKNSIA	EAVTRLN	QQYDRLPLF	En_Gen	nd, nd, nd, nd, nd, nd
RSSQSCWFESYNKNSVA	WAKTRES	YQYPRLPLS	Ctrl	nd, nd, nd, nd, nd, nd

From the AlphaSeq antibody data of Li et al. 2023 (doi:10.1038/s41467-023-39022-2), copy in the FLAb collection.